The list shows a part of the results, in another mix than the full data. Calls of active or inactive are those of the source. Rule as the data show it: active = inhibition above about 16%; inactive = the rest.
Molecular target: Serine/threonine-protein phosphatase PP1-alpha catalytic subunit (Homo sapiens) (UniProt P62136)
Experiment: PP1 phosphatase inhibitors, counter-screen for PP5 inhibitor project, biochemical, fluorescence, triplicate (AID 2355)
Details: PP1 enzyme, fluorescent phosphatase substrate; at 6.7 µM; active compounds read high

Sequences of proteins named here, by UniProt entry; tags and fusion partners are left off.
UniProt P62136, whole entry: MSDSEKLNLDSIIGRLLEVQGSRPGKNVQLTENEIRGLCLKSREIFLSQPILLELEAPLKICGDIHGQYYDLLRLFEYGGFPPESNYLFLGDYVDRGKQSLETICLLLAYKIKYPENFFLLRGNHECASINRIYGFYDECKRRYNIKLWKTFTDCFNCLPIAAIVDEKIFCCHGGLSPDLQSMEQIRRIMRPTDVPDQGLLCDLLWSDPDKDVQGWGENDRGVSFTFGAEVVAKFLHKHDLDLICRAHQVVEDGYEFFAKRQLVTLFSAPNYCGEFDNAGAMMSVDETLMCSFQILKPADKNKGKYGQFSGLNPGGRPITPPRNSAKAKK

## Cc1cc(C)cc(OP(C)(N)=O)c1 (stereo unspecified)
  inhibition: inactive: 0.37%

Reference: PubChem BioAssay AID2355 (The Scripps Research Institute Molecular Screening Center, 2010)
